Results from patent US20240018189A1 (Protagonist Therapeutics, Inc., priority 2020, published 2024).

The substances below were run against T1, human ferroportin (Homo sapiens, UniProt Q9NP59) (assay: FPN activity assay: internalization/degradation of ferroportin-GFP in stably transfected HEK293 cells). Conditions: read-out: FPN EC50; Table 3A; HEK293 ferroportin-GFP cells, at least 18 hours incubation.
T1 sequence (Q9NP59 1-571): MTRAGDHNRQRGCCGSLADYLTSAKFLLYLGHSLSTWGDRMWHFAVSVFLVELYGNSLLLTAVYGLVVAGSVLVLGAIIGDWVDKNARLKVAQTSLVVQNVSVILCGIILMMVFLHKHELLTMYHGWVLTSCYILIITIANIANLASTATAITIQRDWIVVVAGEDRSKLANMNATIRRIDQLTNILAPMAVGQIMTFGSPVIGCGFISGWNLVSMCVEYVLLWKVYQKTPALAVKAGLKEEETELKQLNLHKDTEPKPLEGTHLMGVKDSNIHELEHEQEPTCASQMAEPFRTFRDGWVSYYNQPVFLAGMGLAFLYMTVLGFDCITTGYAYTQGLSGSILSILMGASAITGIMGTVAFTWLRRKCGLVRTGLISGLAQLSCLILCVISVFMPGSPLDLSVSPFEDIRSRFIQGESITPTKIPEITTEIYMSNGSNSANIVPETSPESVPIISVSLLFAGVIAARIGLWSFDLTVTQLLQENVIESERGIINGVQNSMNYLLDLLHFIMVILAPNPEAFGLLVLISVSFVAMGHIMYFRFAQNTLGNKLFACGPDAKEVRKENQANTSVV

| Substance | DC50 |
| --- | --- |
| Isovaleric acid-D-T-H-[Dpa]-P-C-I-(D)Lys-bhPhe-[Lys(Ahx-Palm)]-K-C-NH2 [Compound 17] | 8.29 nM |
| Isovaleric acid-D-T-H-[Dpa]-P-C-I-[Spiral_Pip]-bhPhe-[Lys(Ahx-Palm)]-(D)Lys-C-NH2 [Compound 27] | 26.3 nM |
| Isovaleric Acid-D-T-H-[Dpa]-P-C-I-[(D)Lys]-[bhPhe]-[Lys(Ahx_Ahx_Ahx_Palm)]-[(D)Lys]-C-NH2 [Compound 40] | 18.5 nM |
| Isovaleric Acid-D-T-H-[Dpa]-P-C-I-[(D)Lys]-[bhPhe]-[Lys(1Peg2_1Peg2_Ahx_C18_Diacid)]-[(D)Lys]-C-NH2 [Compound 43] | 283 nM |
| Isovaleric Acid-D-T-H-[Dpa]-P-C-I-[(D)Lys]-[bhPhe]-[Lys(2Peg11′_Palm)]-P-R-S-K-[Sarc]-C-NH2 [Compound 34] | 23.6 nM |
| Isovaleric acid-D-T-H-[Dpa]-P-C-I-Lys[1Peg2-1Peg2-isoGlu-Behenic_Acid]-bhPhe-(D)Lys-C-NH2 [Compound 9] | 18.4 nM |
| Isovaleric acid-D-T-H-[Dpa]-P-C-I-bhPhe-[Lys(Ahx-Palm)]-(D)Lys-C-NH2 [Compound 18] | 10.8 nM |
| Isovaleric Acid-D-T-H-[Dpa]-P-C-I-[(D)Lys]-[bhPhe]-[Lys(Ahx_Ahx_Palm)]-[(D)Lys]-C-NH2 [Compound 39] | 19.3 nM |
| Isovaleric acid-D-T-H-[Dpa]-P-C-I- Lys[Ahx-Behenic_Acid]-bhPhe-(D)Lys-C-NH2 [Compound 8] | 550 nM |
| Isovaleric acid-D-T-H-[Dpa]-[Npc]-C-I-(D)Lys-bhPhe-Lys[1Peg2-1Peg2-Ahx-C18_Diacid]-C-(D)Lys-NH2 [Compound 15] | > 3000 nM |
| Isovaleric acid-D-T-H-[Dpa]-[Npc]-C-I-(D)Lys-bhPhe-Lys[isoGlu-Palm]-C-(D)Lys-NH2 [Compound 13] | 16.1 nM |
| Isovaleric acid-D-T-H-[Dpa]-[Npc]-C-I-(D)Lys-bhPhe-[Lys(Ahx-Palm)]-C-(D)Lys-NH2 [Compound 12] | 11.5 nM |
| Isovaleric acid-D-T-H-[Dpa]-P-C-I-Cit-bhPhe-[Lys(Ahx-Palm)]-(D)Lys-C-NH2 [Compound 30] | 26.6 nM |
| Isovaleric Acid-D-T-H-[Dpa]-P-C-I-[(D)Lys]-[bhPhe]-[Lys(2Peg11′_Peg11_Palm)]-[(D)Lys]-C-NH2 [Compound 41] | 18.5 nM |
| Isovaleric acid-D-T-H-[Dpa]-P-C-I-Lys[1Peg2-1Peg2-Ahx-C18_Diacid]-bhPhe-(D)Lys-C-NH2 [Compound 11] | 12.7 nM |
| Isovaleric Acid-D-T-H-[Dpa]-P-C-I-[(D)Lys]-[bhPhe]-[Lys(2Peg11′_Sarc_Palm)]-[(D)Lys]-C-NH2 [Compound 36] | 10.9 nM |
| Isovaleric Acid-D-T-H-[Dpa]-P-C-I-[(D)Lys]-[bhPhe]-[Lys(2Peg11′_Ahx_Palm)]-[(D)Lys]-C-NH2 [Compound 37] | 19.6 nM |
| Isovaleric acid-D-T-H-[Dpa]-[Npc]-C-I-(D)Lys-bhPhe-[Lys(Ahx-Palm)]-(D)Lys-C-NH2 [Compound 4] | 6.35 nM |
| Isovaleric acid-D-T-H-[Dpa]-P-C-I-(D)Lys-bhPhe-Lys[Palm]-K-C-NH2 [Compound 16] | 5.85 nM |
| Isovaleric acid-D-T-H-[Dpa]-P-C-I-Arg(Nitro)-bhPhe-[Lys(Ahx-Palm)]-(D)Lys-C-NH2 [Compound 28] | 27.1 nM |

Same assay, conditions: read-out: FPN EC50; Table 3B; HEK293 ferroportin-GFP cells, at least 18 hours incubation

| Substance | DC50 |
| --- | --- |
| Isovaleric Acid-D-T-H-[Dpa]-P-[Cys]-I-[bhPhe]-[Lys(Ahx_Palm)]-[(D)Lys]-[Cys]-NH2 [Compound 206] | 10.8 nM |
| Isovaleric Acid-D-T-H-F-P-[Cys]-I-[Lys(IsoGlu_Palm)]-F-E-P-R-S-K-[Sarc]-[Cys]-K-NH2 [Compound 237] | 11.4 nM |
| Isovaleric Acid-D-T-H-F-P-[Cys]-I-K-F-[Lys(PEG12_Sarc_Palm)]-P-R-S-K-[Sarc]-[Cys]-K-NH2 [Compound 211] | 9.21 nM |
| Isovaleric Acid-D-T-H-[Dpa]-P-[Cys]-I-[(D)Lys(PEG12_OMe)]-[bhPhe]-[Lys(1PEG2_1PEG2_IsoGlu_C18_Diacid)]-[(D)Lys(PEG12_OMe)]-[Cys]-NH2 [Compound 253] | > 3000 nM |
| Isovaleric Acid-D-T-H-F-P-[Cys]-I-[Lys(IsoGlu_Palm)]-F-E-P-[MeArg]-S-K-G-[Cys]-K-NH2 [Compound 240] | 11.1 nM |
| Isovaleric Acid-D-T-H-[MePhe]-P-[Cys]-I-[(D)Lys]-[bhPhe]-[Lys(Ahx_Palm)]-[(D)Lys]-[Cys]-NH2 [Compound 203] | 28 nM |
| Isovaleric Acid-D-T-H-F-P-[Cys]-I-[Lys(IsoGlu_Palm)]-F-E-P-R-S-[MeLys]-G-[Cys]-K-NH2 [Compound 238] | 10.6 nM |
| Isovaleric Acid-D-T-H-F-P-[Cys]-L-[Lys(IsoGlu_Palm)]-F-E-P-R-S-K-G-[Cys]-K-NH2 [Compound 216] | 16.6 nM |
| Isovaleric Acid-D-T-H-F-P-[Cys]-I-[Lys(IsoGlu_Palm)]-[MePhe]-E-P-R-S-K-G-[Cys]-K-NH2 [Compound 242] | 33.3 nM |
| Isovaleric Acid-D-T-H-F-P-[Cys]-I-[Lys(IsoGlu_Palm)]-F-[MeGlu]-P-R-S-K-G-[Cys]-K-NH2 [Compound 241] | 20.8 nM |
| Isovaleric Acid-D-T-H-F-P-[Cys]-[MeLeu]-[Lys(IsoGlu_Palm)]-F-E-P-R-S-K-G-[Cys]-K-NH2 [Compound 244] | 9.59 nM |
| Isovaleric Acid-D-T-H-F-P-[Cys]-I-[(D)Lys]-[bhPhe]-[Lys(Palm)]-K-[Cys]-NH2 [Compound 205] | 4.23 nM |

Same assay, conditions: read-out: IC50: FPN internalisation; Table 3C

| Substance | DC50 |
| --- | --- |
| [Isovaleric Acid]-D-T-H-F-[Npc]-C-I-[(D)Lys]-F-[Lys(PEG12_Palm)]-[(D)Lys]-C-NH2 [Compound 351] | 13.2 nM |
| [Isovaleric Acid]-D-T-H-F-P-C-I-[Lys(IsoGlu_palm)]-F-E-P-R-S-K-G-C-K-NH2 [Compound 319] | 35.8 nM |
| [Isovaleric Acid]-D-T-H-[Dpa]-P-C-I-[(D)Lys]-F-[Lys(PEG12_Palm)]-[(D)Lys]-C-NH2 [Compound 337] | 19.5 nM |
| [Isovaleric Acid]-D-T-H-[Dpa]-[Npc]-C-I-[(D)Lys]-[Phe(4-CN)]-[Lys(PEG12_Palm)]-K-C-NH2 [Compound 347] | 23 nM |
| [Isovaleric Acid]-D-T-H-[Dpa]-P-C-I-[(D)Lys]-F-[Lys(PEG12_Palm)]-[Orn]-C-NH2 [Compound 340] | 26.9 nM |
| [Isovaleric Acid]-D-T-H-F-P-C-I-[(D)Lys]-F-[Lys(PEG12_Palm)]-K-[aMeCys]-NH2 [Compound 355] | 7.55 nM |
| [Isovaleric Acid]-D-T-H-[Dpa]-P-C-I-[(D)Lys]-[Dpa]-[Lys(PEG12_Palm)]-[(D)Lys]-C-NH2 [Compound 345] | 23 nM |
| [Isovaleric Acid]-D-T-H-[Dpa]-P-C-I-[(D)Lys]-F-Lys(PEG12_Palm)]-[(D)Lys]-[N-MeCys]-NH2 [Compound 342] | 21.8 nM |
| [Isovaleric Acid]-D-T-H-[Dpa]-[Npc]-C-I-[(D)Lys]-[Phe(3,4-diF)]-[Lys(PEG12 Palm)]-K-C-NH2 [Compound 346] | 6.16 nM |
| [Isovaleric Acid]-D-T-H-[Dpa]-P-C-I-[(D)Lys]-F-[Lys(PEG12_Palm)]-[(D)Lys]-[Pen]-NH2 [Compound 344] | 7.75 nM |
| [Isovaleric Acid]-D-T-H-[Dpa]-P-C-I-[(D)Lys(Ac)]-[bhPhe]-[Lys(Ac)]-C-NH2 [Compound 325] | 37.8 nM |
| [Isovaleric Acid]-D-T-H-[Dpa]-P-C-I-[Lys(Ahx_Palm)]-[2Pal]-[(D)Lys]-C-NH2 [Compound 321] | 21.7 nM |
| [Isovaleric Acid]-D-T-H-[Dpa]-[Npc]-C-I-[(D)Lys]-[2Nal]-[Lys(PEG12_Palm)]-K-C-NH2 [Compound 357] | 10.2 nM |
| [Isovaleric Acid]-D-T-H-[Dpa]-P-C-I-[bhPhe]-[Lys(PEG12_Palm)]-[(D)Lys]-C-NH2 [Compound 330] | 6.93 nM |
| [Isovaleric Acid]-D-T-H-[Dpa]-P-C-I-[(D)Lys]-F-[Lys(PEG12 Palm)]-[Dab]-C-NH2 [Compound 339] | 22.8 nM |
| [Isovaleric Acid]-D-T-H-[Dpa]-P-C-I-[(D)Lys]-F-[Lys(PEG12_Palm)]-[Dap]-[Pen]-NH2 [Compound 336] | 49.3 nM |
| [Isovaleric Acid]-D-T-H-[Dpa]-P-C-I-[(D)Lys]-[bhPhe]-[Lys(PEG12_Palm)]-[(D)Lys]-C-NH2 [Compound 349] | 11.2 nM |
| [Isovaleric Acid]-D-T-H-[Dpa]-[Npc]-C-I-[(D)Lys]-[Phe(4-tBu)]-[Lys(PEG12_Palm)]-K-C-NH2 [Compound 359] | 8.57 nM |
| [Isovaleric Acid]-D-T-H-[Dpa]-[Npc]-C-I-[(D)Lys]-F-[Lys(PEG12 Palm)]-[(D)Lys]-C-NH2 [Compound 352] | 6.48 nM |
| [Isovaleric Acid]-D-T-H-[Dpa]-[Npc]-C-I-[(D)Lys]-[Phe(4-(2-aminoethoxy)]-[Lys(PEG12 Palm)]-K-C-NH2 [Compound 358] | > 3000 nM |
| [Isovaleric Acid]-D-T-H-[Dpa]-P-C-I-[(D)Lys]-[bhPhe]-K-[(D)Lys]-C-NH2 [Compound 327] | 142 nM |
| [Isovaleric Acid]-D-T-H-F-P-C-I-[(D)Lys]-F-[Lys(PEG12_Palm)]-C-K-NH2 [Compound 334] | 32 nM |
